From patent US20040259244A1, “Methods, compositions, and growth and differentiation factors for insulin-producing cells” (priority 2002, published 2004)

Test system: conversion of stem cells into insulin producing cells
Format: cell-based
Settings: statistical analysis of insulin content of supernatants, 3 donors, combinatorial array in alginate

Substance: CGRP alpha: Calcitonin Gene Related Peptide (ACDTATCVTHRLAGLLSRSGGVVKNNFVPTNVGSKAF; Calcitonin gene-related peptide 1; UniProt P06881 83-119, looked up)
- effect on the conversion of stem cells into insulin producing cells: potential negative effect
